# Binding of CDR-mutated scFvs to a peptide of the spike HR2 region

The target is the same throughout: PDVDLGDISGINAS, from the HR2 region of SARS-CoV-2 spike.

Parent scFv Ab-14: VH joined to VL by a (GGGGS)3 linker. Changes lie in the heavy chain CDRs alone.
VH: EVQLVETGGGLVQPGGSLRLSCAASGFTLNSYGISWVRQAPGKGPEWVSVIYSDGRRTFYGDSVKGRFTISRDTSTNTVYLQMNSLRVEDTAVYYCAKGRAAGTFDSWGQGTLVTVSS
VL: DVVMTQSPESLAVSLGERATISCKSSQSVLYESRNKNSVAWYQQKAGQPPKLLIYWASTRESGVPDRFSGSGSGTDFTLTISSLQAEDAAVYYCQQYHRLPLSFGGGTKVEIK

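The parent was found by panning a naive human phage display library on the peptide. Designed CDR sequences, proposed from the first random library and measured here. Group labels follow the data file (Ctrl: baseline library sampled from a position-specific scoring matrix, with some repeated check sequences; GPLM: also part of the Gaussian process libraries; HC: hill climbing; Gen: genetic algorithm; a sequence that several methods proposed may carry one label only). AlphaSeq pools MATa yeast showing the antibodies with MATalpha yeast showing the peptide. Binding brings cells together so that they mate, and sequencing counts the barcode pairs among the diploids. The ratio of observed to expected reads was calibrated, replicate by replicate, on BCL2-family standards whose Kd was known from biolayer interferometry. Each pool was mated in six replicate cultures.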

The parent's heavy chain CDRs are GFTLNSYGIS, VIYSDGRRTFYGDSVK, GRAAGTFDS; each variant's own CDRs replace them letter for letter. Scale: log10 of Kd in nM, estimated from mating counts; low values are strong binders. "n.d." marks a missing value. The strain was present, yet no cells mated with the target were sequenced in that replicate, which points to weak or no binding.

| CDR-H1 | CDR-H2 | CDR-H3 | group | log10 Kd, replicates | control signals |
|---|---|---|---|---|---|
| GVTLNEYGIS | VIYSDGRRTFYEDSVK | GEAAGTFDS | Ctrl | n.d. / n.d. / 1.89 / 2.45 / 1.46 / 1.41 | 0 of 18 |
| GFTLNSYGIS | VIYSDGRRTFYGDSVK | GRAAGVFDS | Ctrl | n.d. / n.d. / n.d. / n.d. / n.d. / n.d. | 0 of 18 |
| GETLNNYGIS | VIYSDGLRTFYSDSVK | GRAAFTFDS | Ctrl | n.d. / n.d. / n.d. / n.d. / n.d. / n.d. | 1 of 18 (2.27) |
| GFNLNSYGRS | VIYSDGRRTFYGDSVK | GRAAGTFDS | Ctrl | n.d. / n.d. / n.d. / n.d. / n.d. / n.d. | 0 of 18 |
| GFTLNSYGIH | VIYADGRRTFYGDSVK | GEAAGTFDS | Ctrl | 0.35 / 0.21 / -0.10 / 0.24 / 0.09 / 0.69 | 0 of 18 |
| GFTLNEYGIS | VIYSDGRRTFYGDSVK | GREASTFDS | Ctrl | n.d. / n.d. / n.d. / n.d. / n.d. / n.d. | 1 of 18 (2.00) |
| GFTLNSYGIS | VIYSDGYRTFYGDSVK | GRAPGTFDS | Ctrl | n.d. / n.d. / n.d. / n.d. / n.d. / n.d. | 0 of 18 |
| DFTLNSYGIS | VIYSDGRRTFYGDSVK | GRAAGTFDS | Ctrl | n.d. / n.d. / n.d. / n.d. / n.d. / n.d. | 2 of 18 (2.50) |
| GFTLNSYGIS | VIYSDGRRTAYGDSVK | GRAAGTFDM | Ctrl | 1.46 / 1.56 / 0.75 / 1.56 / 1.10 / 1.98 | 2 of 18 (2.47) |
| GFTLNSYGIS | VIYSDGRRTFYGNSVK | GRAAGTFDC | Ctrl | n.d. / n.d. / n.d. / n.d. / n.d. / n.d. | 0 of 18 |
| GNNLNSYGIS | VIYSDGQRTFYGDSVR | GRAVGTFDD | Ctrl | n.d. / 1.47 / n.d. / 1.84 / 1.19 / n.d. | 1 of 18 (1.19) |
| GFALNSYGIS | VIYSDGRRTFYLDSVK | GRAAGTFDS | Ctrl | 1.02 / 0.69 / 1.25 / 0.24 / 0.32 / 0.43 | 0 of 18 |
| GFTLNSYGIS | VIYSDGRRTFYGDSVK | GRAALTFDL | Ctrl | n.d. / n.d. / n.d. / n.d. / n.d. / n.d. | 0 of 18 |
| GFTLQSYGIS | VIYADGRRTFYGDSVV | GQSAGTFDS | Ctrl | n.d. / 2.53 / 0.85 / 1.39 / 1.83 / 1.81 | 1 of 18 (3.72) |
| GFTLNSYGIS | VIYSDGRRTYYGDSVK | GRAAGTFDS | Ctrl | n.d. / 1.82 / n.d. / n.d. / n.d. / 1.87 | 1 of 18 (1.53) |
| GETLNSYGIS | VIYSDGRRTAYGDSVH | GEAAGTFDS | Ctrl | -0.01 / 0.22 / 0.78 / 0.30 / 1.51 / 1.36 | 0 of 18 |
| GYHLNSYGIS | VIYSDGRRTFYGDDVK | GDAAGTFDS | Ctrl | n.d. / n.d. / n.d. / n.d. / n.d. / n.d. | 0 of 18 |
| TFTLNSYGIS | VIYSDGRRTFYGDSVK | GRAAGTFDS | Ctrl | n.d. / n.d. / n.d. / n.d. / n.d. / n.d. | 1 of 18 (2.21) |
| GFTLNSYGIQ | VIYSDGRRTFYQDSVK | GRAAGTFDS | Ctrl | n.d. / n.d. / n.d. / n.d. / n.d. / n.d. | 0 of 18 |
| GFTLNSYGSS | VIYSDGRRTFYGDSVK | GRAEGTFDS | Ctrl | n.d. / n.d. / n.d. / n.d. / n.d. / n.d. | 0 of 18 |
| GFTLNSYGIS | VIYSDGRRTFYSDSVK | GAAAGTFDS | Ctrl+GPLM_Gen | 0.19 / 0.48 / 0.30 / 0.20 / 0.37 / 0.62; 0.77 / 0.99 / 0.87 / 0.50 / 0.72 / 0.32 | 2 of 36 (1.99) |
| GFTLDSYGIS | VIYSDGRRTFYTDQVK | GRAAGTFDQ | Ctrl | n.d. / 0.63 / n.d. / 1.65 / n.d. / 1.70 | 1 of 18 (1.78) |
| GFTLNSYGIH | VIYSDGRRTFYLDSVK | GRRAGTFDS | Ctrl | n.d. / n.d. / n.d. / n.d. / n.d. / n.d. | 0 of 18 |
| GFTLNSYGIS | VIYSDGRRTFYGDSVK | GRLAGTFDY | Ctrl | 1.52 / n.d. / n.d. / 2.15 / 2.79 / n.d. | 0 of 18 |
| GFTLNMYGIS | VIYSDGRRTFYTDSVK | GRAAGTFDS | Ctrl | 1.30 / n.d. / n.d. / 2.81 / n.d. / n.d. | 0 of 18 |
| GFTLNKYGIS | VIYSDGRRTFYSDSVK | GRVAGTFSS | Ctrl | 2.05 / 0.78 / n.d. / n.d. / 3.18 / n.d. | 0 of 18 |
| GTTLNSYGIS | VIYSDGRRTFYSDSVK | GEAAGTFDS | Ctrl | n.d. / 0.64 / 1.86 / 1.59 / 0.63 / 2.00 | 0 of 18 |
| GYNLNSYGIS | VIYSDGRRTMYGDSVK | GRAAGTFDS | Ctrl | n.d. / n.d. / n.d. / n.d. / n.d. / n.d. | 0 of 18 |
| GFSLNSFGIS | VDYSDGRRTFYHDSVK | GRAAGTFDS | Ctrl | n.d. / n.d. / n.d. / n.d. / n.d. / n.d. | 0 of 18 |
| GFALNSYGIS | VIYSDGRRTFYGDSVK | TRAAGTFDS | Ctrl | n.d. / n.d. / n.d. / n.d. / n.d. / n.d. | 1 of 18 (1.91) |
| GFTLNSYGIS | VIYSDGRRTFYGDSVK | GRAQGTFDS | Ctrl | n.d. / n.d. / n.d. / n.d. / n.d. / n.d. | 0 of 18 |
| GFTNNEYGIS | VIYSDGRRQFYGDSVK | GHAYATFTS | Ctrl | n.d. / n.d. / n.d. / n.d. / n.d. / n.d. | 0 of 18 |
| GFTLNEYGIS | VIYSDGRRTFYGDSVK | GRAAHTFDS | Ctrl | n.d. / n.d. / n.d. / n.d. / n.d. / n.d. | 1 of 18 (2.07) |
| GFTLNSYGIS | VIYADGRRTFYGDSVK | GRAAGTYDS | Ctrl+GPLM_HC | 1.52 / 3.25 / 1.72 / 1.99 / n.d. / 1.85; n.d. / n.d. / 1.13 / n.d. / n.d. / n.d. | 0 of 36 |
| GYNLDEYGIS | VIYSDGLRTFYGDSVK | GRHAGTFRS | Ctrl | n.d. / n.d. / n.d. / n.d. / n.d. / n.d. | 0 of 18 |
| GFTINSYGIS | VIYSDGRRTFYGDSVK | GRAAGTFSL | Ctrl | n.d. / n.d. / n.d. / n.d. / n.d. / n.d. | 1 of 18 (2.33) |
| GFTLNSYGIS | VIYSCGRRTFYGDSVK | ARAAGTWDT | Ctrl | n.d. / n.d. / n.d. / n.d. / n.d. / n.d. | 0 of 18 |
| KFTLNSYGIS | VIYSDGRRTFYGDSVK | GRLAGTWDS | Ctrl | n.d. / n.d. / n.d. / n.d. / n.d. / n.d. | 0 of 18 |
| GFQLNDYGIS | VIYSDGRRTFYGDSVK | GRVAVTFFS | Ctrl | 0.04 / -0.38 / 0.18 / -0.49 / -0.27 / 0.22 | 0 of 18 |
| GFTLNSYGIS | VIYSDGLRTFYGDSVK | GRAAGTFDS | Ctrl | n.d. / n.d. / n.d. / 1.60 / n.d. / n.d. | 0 of 18 |
| GFTLNSYGIS | VIYADGRRTFYGDSVK | GRDAGTFDS | Ctrl | -0.31 / -0.30 / -0.18 / -0.35 / -0.23 / -0.06 | 0 of 18 |
| GFTLNDYGIS | VIYSDGRRTAYLDSVK | GEAAQTFSQ | Ctrl | n.d. / n.d. / n.d. / n.d. / n.d. / n.d. | 0 of 18 |

Top 5 of the variants detected in all replicates, tightest first:

| CDR-H1 | CDR-H2 | CDR-H3 | group | log10 Kd, replicates | control signals |
|---|---|---|---|---|---|
| GFTLNSYGIS | VIYADGRRTFYGDSVK | GRDAGTFDS | Ctrl | -0.31 / -0.30 / -0.18 / -0.35 / -0.23 / -0.06 | 0 of 18 |
| GFQLNDYGIS | VIYSDGRRTFYGDSVK | GRVAVTFFS | Ctrl | 0.04 / -0.38 / 0.18 / -0.49 / -0.27 / 0.22 | 0 of 18 |
| GFTLNSYGIH | VIYADGRRTFYGDSVK | GEAAGTFDS | Ctrl | 0.35 / 0.21 / -0.10 / 0.24 / 0.09 / 0.69 | 0 of 18 |
| GFTLNSYGIS | VIYSDGRRTFYSDSVK | GAAAGTFDS | Ctrl+GPLM_Gen | 0.19 / 0.48 / 0.30 / 0.20 / 0.37 / 0.62; 0.77 / 0.99 / 0.87 / 0.50 / 0.72 / 0.32 | 2 of 36 (1.99) |
| GFALNSYGIS | VIYSDGRRTFYLDSVK | GRAAGTFDS | Ctrl | 1.02 / 0.69 / 1.25 / 0.24 / 0.32 / 0.43 | 0 of 18 |

The authors averaged sequences with at least three values out of six and counted those with two or fewer as poor binders. A sequence that the file lists under several names has all its replicates listed entry by entry, parted by semicolons. Nonspecific signal, from three strains lacking the peptide, appeared in 1% of pairings of all heavy chain designs, centred on 2.08 (5% of these signals below 0.84); values are not corrected for it. For each scFv, signals with the empty controls are counted beside the result, with their mean in brackets. Values of this round are not directly comparable with the first-round values of the same sequences. Of ten entries with the parent sequence, four were seen in most replicates (averages 0.34 to 2.37), three in one and three in none, so single entries are noisy.

Reference: Li et al. 2023, doi:10.1038/s41467-023-39022-2. File: FLAb, binding data.